Assay [1] has as its target T1, AAK1 (30-330) protein (Homo sapiens, UniProt Q2M2I8). The assay can be described thus: AAK1 kinase assay (ADP generated, detected by HPLC). The conditions noted are these: 3.5 nM AAK1, 22 µM ATP, 25°C, 3 h; tested form: free base.
In the next assay the target is AAK1 (Homo sapiens, UniProt Q2M2I8). The assay can be described thus: Effect on AP2M1 phosphorylation in 293T cells co-transfected with AAK1 and AP2M1 (Western blot, anti-p-AP2M1). To be noted: p-AP2M1 level, incubated 3 h, tested form: free base.
Assay [2] concerns the target T1, AAK1 (30-330) protein. In words: CETSA test of binding ability to AAK1 protein (Western blot). To be noted: tested form: free base.

Protein sequences, listed by entry. Tags and fused reporters are not part of them. Residues count along the entry.
UniProt Q2M2I8, 30-330 limits assumed: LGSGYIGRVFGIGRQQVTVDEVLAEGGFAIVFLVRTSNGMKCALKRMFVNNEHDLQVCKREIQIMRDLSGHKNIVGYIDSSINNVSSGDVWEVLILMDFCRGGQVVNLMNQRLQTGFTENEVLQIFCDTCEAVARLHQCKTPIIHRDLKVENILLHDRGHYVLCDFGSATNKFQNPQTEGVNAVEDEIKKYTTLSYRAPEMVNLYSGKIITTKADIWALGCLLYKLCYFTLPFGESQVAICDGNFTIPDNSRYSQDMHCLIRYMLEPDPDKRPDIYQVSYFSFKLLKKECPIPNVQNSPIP
UniProt Q2M2I8, whole entry: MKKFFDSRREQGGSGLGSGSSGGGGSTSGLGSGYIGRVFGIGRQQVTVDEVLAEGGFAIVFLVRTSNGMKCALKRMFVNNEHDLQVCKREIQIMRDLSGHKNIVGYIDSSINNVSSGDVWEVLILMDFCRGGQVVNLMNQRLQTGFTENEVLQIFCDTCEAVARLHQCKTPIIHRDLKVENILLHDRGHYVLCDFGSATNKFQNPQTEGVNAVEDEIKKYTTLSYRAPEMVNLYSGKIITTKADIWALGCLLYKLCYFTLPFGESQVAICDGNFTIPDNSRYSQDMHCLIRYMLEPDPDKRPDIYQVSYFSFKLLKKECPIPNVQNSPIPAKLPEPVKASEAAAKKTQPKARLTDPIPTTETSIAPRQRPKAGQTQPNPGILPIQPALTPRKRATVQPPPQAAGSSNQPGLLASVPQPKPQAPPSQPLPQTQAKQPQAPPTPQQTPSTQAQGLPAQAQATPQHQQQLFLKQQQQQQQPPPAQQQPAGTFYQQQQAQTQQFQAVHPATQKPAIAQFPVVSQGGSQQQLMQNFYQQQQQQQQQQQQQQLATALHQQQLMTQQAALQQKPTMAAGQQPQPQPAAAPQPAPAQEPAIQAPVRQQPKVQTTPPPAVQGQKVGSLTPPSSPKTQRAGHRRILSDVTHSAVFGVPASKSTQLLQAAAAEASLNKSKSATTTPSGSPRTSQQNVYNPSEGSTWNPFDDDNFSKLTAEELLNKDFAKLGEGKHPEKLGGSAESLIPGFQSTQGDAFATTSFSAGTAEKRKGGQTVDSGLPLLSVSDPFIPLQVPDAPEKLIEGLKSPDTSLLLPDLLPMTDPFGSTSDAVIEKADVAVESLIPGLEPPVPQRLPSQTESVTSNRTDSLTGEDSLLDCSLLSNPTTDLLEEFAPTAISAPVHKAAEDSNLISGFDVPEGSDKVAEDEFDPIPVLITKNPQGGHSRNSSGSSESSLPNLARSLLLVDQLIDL

Turning to `CC(C)C[C@@](C)(N)COc1ncc(-c2c[nH]c3ncc(C(F)F)cc23)c(C(F)(F)F)n1`, the IC50 at AAK1 (30-330) protein [1] was 99.5 nM; on AAK1, 10 to 100 nM. The molecule also returned an EC50 on AAK1 (30-330) protein [2] of 10 to 100 nM.

In the case of `C=C(C)CC(C)(N)COc1ccc(-c2c[nH]c3nccc(OC)c23)nc1C(F)F` (stereo not drawn), the results for the IC50 against AAK1 (30-330) protein [1] and on AAK1 were 99.6 nM and 10 to 100 nM, respectively. Moreover, at AAK1 (30-330) protein [2], the EC50 is 100 to 1000 nM.

Regarding `CC(C)C[C@](C)(N)COc1ncc(-c2c[nH]c3ccc(C(F)F)cc23)c(C(F)(F)F)n1`, the 50% inhibitory concentration (IC50) against AAK1 (30-330) protein [1] was 96.7 nM; against AAK1, 100 to 1000 nM. Further, the EC50 at AAK1 (30-330) protein [2] lay within 100 to 1000 nM.

Turning to `CC(C)C[C@@](C)(N)COc1ncc(-c2c[nH]c3ncc(C(F)F)cc23)cc1C(F)F`, the IC50 against AAK1 (30-330) protein [1] is 148 nM; against AAK1, 10 to 100 nM. The EC50 at AAK1 (30-330) protein [2] lay in the range of 100 to 1000 nM.

As to `CC(C)C[C@](C)(N)COc1ccc(-c2c[nH]c3ncc(C(F)(F)F)cc23)nc1C(F)F`, the IC50 against AAK1 (30-330) protein [1] was 118 nM; against AAK1, 10 to 100 nM. The molecule also showed an EC50 at AAK1 (30-330) protein [2] of 10 to 100 nM.

For `CC(C)C[C@@](C)(N)COc1ccc(-c2c[nH]c3ncc(C(F)(F)F)cc23)nc1C(F)F`, the IC50 at AAK1 (30-330) protein [1] was 72.1 nM; on AAK1, 10 to 100 nM. On AAK1 (30-330) protein [2], the EC50 was 100 to 1000 nM.

For the molecule `CC(C)C[C@@](C)(N)COc1ccc(-c2c[nH]c3ncc(C#N)cc23)nc1C(F)F`, the IC50 against AAK1 (30-330) protein [1] was 102 nM; against AAK1, 10 to 100 nM. Moreover, on AAK1 (30-330) protein [2], the EC50 lay in the range of 10 to 100 nM.

With `CC(=O)Nc1cc(-c2ccc(OC[C@@](C)(N)CC3(F)COC3)c(C#N)n2)n2nccc2n1`, the IC50 at AAK1 (30-330) protein [1] is 107 nM; against AAK1, 10 to 100 nM. Further, the EC50 at AAK1 (30-330) protein [2] lay in the range of 100 to 1000 nM.

`CC(C)C[C@@](C)(N)COc1ccc(-c2c[nH]c3ncc(C(F)F)cc23)cc1C(F)(F)F`: the IC50 at AAK1 (30-330) protein [1] was 89.2 nM; on AAK1 it was 10 to 100 nM. On AAK1 (30-330) protein [2], this molecule had an EC50 of 10 to 100 nM.

In the case of `CC(C)C[C@@](C)(N)COc1ncc(-c2c[nH]c3ccc(C(F)F)cc23)c(C(F)(F)F)n1`, the IC50 is 78.4 nM against AAK1 (30-330) protein [1] and 10 to 100 nM against AAK1. On AAK1 (30-330) protein [2], this molecule registered an EC50 of 10 to 100 nM.

As for `COc1cnc2[nH]cc(-c3cnc(OC[C@](C)(N)CC(C)C)c(C(F)F)c3)c2c1`, the IC50 was 160 nM on AAK1 (30-330) protein [1] and 10 to 100 nM on AAK1. Moreover, the EC50 at AAK1 (30-330) protein [2] is 10 to 100 nM.

On to `COc1cnc2[nH]cc(-c3cnc(OC[C@@](C)(N)CC(C)C)c(C(F)F)c3)c2c1`, for which the IC50 at AAK1 (30-330) protein [1] is 124 nM; at AAK1, 10 to 100 nM. This molecule displayed an EC50 on AAK1 (30-330) protein [2] of 10 to 100 nM.

Turning to `CC(C)C[C@](C)(N)COc1ncc(-c2c[nH]c3ncc(C(F)F)cc23)cc1C(F)F`, the IC50 is 113 nM against AAK1 (30-330) protein [1] and 100 to 1000 nM at AAK1. The molecule further yielded an EC50 at AAK1 (30-330) protein [2] of 10 to 100 nM.

In the case of `CC(C)C[C@@](C)(N)COc1ccc(-c2c[nH]c3ncc(F)cc23)nc1C(F)F`, the half-maximal inhibitory concentration (IC50) against AAK1 (30-330) protein [1] is 88.9 nM; on AAK1, 10 to 100 nM. This molecule returned an EC50 on AAK1 (30-330) protein [2] of 10 to 100 nM.

On to `CC(C)C[C@@](C)(N)COc1ccc(-c2c[nH]c3ncc(C(F)F)cc23)nc1C(F)F`, for which the IC50 is 67.8 nM at AAK1 (30-330) protein [1] and 100 to 1000 nM on AAK1. Further, at AAK1 (30-330) protein [2], the EC50 was in the range of 10 to 100 nM.

The values are drawn from patent EP4692089A1, “NITROGEN-CONTAINING HETEROCYCLIC COMPOUND AS AAK1 INHIBITOR” (Alicorn Pharmaceutical Co., Ltd., priority 2023, dated 2024).
